{"sequences": {"note": "Protein sequences, listed by entry. Tags and fused reporters are not part of them.", "UniProt P30542, whole entry, looked up": "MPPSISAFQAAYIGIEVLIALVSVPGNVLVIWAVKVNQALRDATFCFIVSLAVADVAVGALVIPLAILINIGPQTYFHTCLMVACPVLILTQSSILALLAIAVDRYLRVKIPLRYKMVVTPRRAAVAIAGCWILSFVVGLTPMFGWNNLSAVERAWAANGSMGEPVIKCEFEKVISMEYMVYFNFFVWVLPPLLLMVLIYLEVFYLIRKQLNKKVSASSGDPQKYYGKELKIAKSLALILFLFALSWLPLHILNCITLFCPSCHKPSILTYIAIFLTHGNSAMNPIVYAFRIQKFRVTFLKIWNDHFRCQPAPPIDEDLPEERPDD", "UniProt P0DMS8, whole entry, looked up": "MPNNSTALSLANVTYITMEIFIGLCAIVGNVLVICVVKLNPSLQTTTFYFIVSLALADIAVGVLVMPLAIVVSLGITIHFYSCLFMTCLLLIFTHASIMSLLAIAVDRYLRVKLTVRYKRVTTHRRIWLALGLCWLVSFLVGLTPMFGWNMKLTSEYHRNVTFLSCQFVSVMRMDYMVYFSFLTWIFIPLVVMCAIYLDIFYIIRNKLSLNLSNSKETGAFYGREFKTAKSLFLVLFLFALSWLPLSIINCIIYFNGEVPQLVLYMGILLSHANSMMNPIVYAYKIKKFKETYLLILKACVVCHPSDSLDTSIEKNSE"}, "source": "ChEMBL document CHEMBL1140434", "about": "“1,2,4-Triazolo[1,5-a]quinoxaline as a versatile tool for the design of selective human A3 adenosine receptor antagonists: synthesis, biological evaluation, and molecular modeling studies of 2-(hetero)aryl- and 2-carboxy-substituted derivatives” (J Med Chem, 2005)", "key": {"[1]": {"system": "Adenosine receptor A2a (Bos taurus)", "experiment": "Percentage inhibition of [3H]CGS 21680 binding to adenosine A2A receptor in bovine striatal membranes at 20 uM", "conditions": "Striatum, Membrane"}, "[2]": {"molecular_target": "Adenosine receptors; A1 & A3 (Homo sapiens) (UniProt P30542+P0DMS8)", "experiment": "Selectivity for human adenosine A3 receptor over human adenosine A1 receptor", "format": "protein assay"}, "[3]": {"experiment": "Selectivity for human adenosine A3 receptor over human adenosine A2A receptor"}, "[4]": {"system": "Adenosine receptor A2a (Bos taurus)", "experiment": "Percentage inhibition of [3H]CGS 21680 binding to adenosine A2A receptor in bovine striatal membranes at 34 uM", "conditions": "Striatum, Membrane"}}, "data": [{"smiles": "Oc1nc2ccc(Cl)cc2n2nc(-c3ccccc3)nc12", "values": [{"measurement": "inhibition", "setting": "[1]", "value": 0, "unit": "%"}]}, {"smiles": "COc1ccc(-c2nc3c(N)nc4ccc(Cl)cc4n3n2)cc1", "values": [{"measurement": "Ratio Ki", "setting": "[2]", "value": 12.4}, {"measurement": "Ratio Ki", "setting": "[3]", "value": "> 3400"}, {"measurement": "inhibition", "setting": "[1]", "value": 53.4, "unit": "%"}]}, {"smiles": "CCOC(=O)c1nc2c(=O)n(C)c3ccccc3n2n1", "values": [{"measurement": "inhibition", "setting": "[1]", "value": 9.2, "unit": "%"}]}, {"smiles": "CCOC(=O)c1nc2c(O)nc3ccc(NC(C)=O)cc3n2n1", "values": [{"measurement": "inhibition", "setting": "[1]", "value": 8.8, "unit": "%"}]}, {"smiles": "Oc1nc2ccc(Cl)cc2n2nc(-c3ccsc3)nc12", "values": [{"measurement": "inhibition", "setting": "[4]", "value": 54.2, "unit": "%"}]}, {"smiles": "COc1ccc(-c2nc3c(O)nc4ccc(Cl)cc4n3n2)cc1", "values": [{"measurement": "Ratio Ki", "setting": "[2]", "value": 0.13}, {"measurement": "inhibition", "setting": "[4]", "value": 12.1, "unit": "%"}]}, {"smiles": "Cc1ccc2c(c1)n1nc(-c3ccccc3)nc1c(=O)n2C", "values": [{"measurement": "inhibition", "setting": "[1]", "value": 11.5, "unit": "%"}]}]}
